The values below are quoted from earlier work in patent publication US6395727B1, “Method of treating Bulimia Nervosa and related eating disorders by administration of atypical antipsychotic medications” (The Cincinnati Children's Hospital Research Foundation, priority 1999, dated 2002).

Amino acid sequences for entries named in this document (tags omitted).
UniProt P10635, whole entry: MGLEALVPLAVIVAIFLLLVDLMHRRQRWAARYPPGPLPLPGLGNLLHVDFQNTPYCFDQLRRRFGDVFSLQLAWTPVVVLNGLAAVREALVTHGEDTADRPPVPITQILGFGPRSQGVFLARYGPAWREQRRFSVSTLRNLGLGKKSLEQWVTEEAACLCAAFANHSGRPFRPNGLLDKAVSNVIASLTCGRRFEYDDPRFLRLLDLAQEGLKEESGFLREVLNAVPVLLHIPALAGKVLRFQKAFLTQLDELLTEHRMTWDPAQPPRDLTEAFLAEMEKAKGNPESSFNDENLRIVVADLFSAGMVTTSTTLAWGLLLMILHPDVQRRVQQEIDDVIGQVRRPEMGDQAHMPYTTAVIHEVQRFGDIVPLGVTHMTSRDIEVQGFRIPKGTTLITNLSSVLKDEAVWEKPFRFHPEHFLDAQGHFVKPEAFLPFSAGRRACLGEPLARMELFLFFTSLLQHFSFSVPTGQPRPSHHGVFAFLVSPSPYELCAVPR

Structures are written as SMILES.

This data set concerns the target cytochrome P450IID6 (Homo sapiens, UniProt P10635). The note with it: by cytochrome P450IID6; cited from earlier work.

Consider `Cc1nc2n(c(=O)c1CCN1CCC(c3noc4cc(F)ccc34)CC1)CCCC2` [risperidone, 3-[2-[4-(6-fluoro-1,2-benzisoxazol-3-yl)-1-piperidinyl]ethyl]-6,7,8,9-tetrahydro-2-methyl-4H-pyrido[1,2-a]pyrimidin-4-one], for which the “metabolism in the liver to the principle metabolite 9-hydroxyrisperidone” value is given as “extensively metabolized”.
